Two compounds from PubChem BioAssay AID602440 (Sanford-Burnham Center for Chemical Genomics, 2012) can be followed below.

Protein sequences, listed by entry. Tags and fused reporters are not part of them.
UniProt Q96LD8, whole entry: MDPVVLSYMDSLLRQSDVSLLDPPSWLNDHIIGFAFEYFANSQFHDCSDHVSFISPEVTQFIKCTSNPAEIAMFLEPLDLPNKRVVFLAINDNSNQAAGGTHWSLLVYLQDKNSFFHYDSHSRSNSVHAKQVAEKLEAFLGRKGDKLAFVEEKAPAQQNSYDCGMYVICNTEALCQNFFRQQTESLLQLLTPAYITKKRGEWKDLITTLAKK

The list shows a part of the results, in another mix than the full data. Calls of active or inactive are those of the source. No stated cut-off is given here; in the data, active means inhibition mostly above about 40% (no sharp cut-off); inactive means mostly below about 27%.

The target of the experiment is Sentrin-specific protease 8 (Homo sapiens) (UniProt Q96LD8). As to the kind of experiment: human SENP8 protease inhibitors, primary screen, biochemical, fluorescence, Nedd8 protein substrate, uHTS (AID 602440). The settings on record: recombinant SENP8, Nedd8 substrate fluorescence; at 20 µM; active compounds read high.
The term inhibition denotes the change of the read-out against control, counted positive when it falls. Regarding `CCC(=O)N(c1ccccc1)C1(COC)CCN(CCc2cccs2)CC1`, the inhibition is inactive: 2.8%.

For the compound `CCC(=O)N(c1ccccc1)C1(COC)CCN(CCn2nnn(CC)c2=O)CC1`, the inhibition is inactive: 4.4%.
